Test results published in PubChem BioAssay AID588352 (The Scripps Research Institute Molecular Screening Center, 2011).
The list shows a part of the results, in another mix than the full data. Activity calls are given as the source filed them.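 Rule for the calls: active = inhibition above a per-campaign cutoff, the mean of all compounds plus 3 SD (cut at about 60% in these data); inactive = the rest.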

Sequences of proteins named here, by UniProt entry; tags and fusion partners are left off.
UniProt Q9Y6Q9, whole entry: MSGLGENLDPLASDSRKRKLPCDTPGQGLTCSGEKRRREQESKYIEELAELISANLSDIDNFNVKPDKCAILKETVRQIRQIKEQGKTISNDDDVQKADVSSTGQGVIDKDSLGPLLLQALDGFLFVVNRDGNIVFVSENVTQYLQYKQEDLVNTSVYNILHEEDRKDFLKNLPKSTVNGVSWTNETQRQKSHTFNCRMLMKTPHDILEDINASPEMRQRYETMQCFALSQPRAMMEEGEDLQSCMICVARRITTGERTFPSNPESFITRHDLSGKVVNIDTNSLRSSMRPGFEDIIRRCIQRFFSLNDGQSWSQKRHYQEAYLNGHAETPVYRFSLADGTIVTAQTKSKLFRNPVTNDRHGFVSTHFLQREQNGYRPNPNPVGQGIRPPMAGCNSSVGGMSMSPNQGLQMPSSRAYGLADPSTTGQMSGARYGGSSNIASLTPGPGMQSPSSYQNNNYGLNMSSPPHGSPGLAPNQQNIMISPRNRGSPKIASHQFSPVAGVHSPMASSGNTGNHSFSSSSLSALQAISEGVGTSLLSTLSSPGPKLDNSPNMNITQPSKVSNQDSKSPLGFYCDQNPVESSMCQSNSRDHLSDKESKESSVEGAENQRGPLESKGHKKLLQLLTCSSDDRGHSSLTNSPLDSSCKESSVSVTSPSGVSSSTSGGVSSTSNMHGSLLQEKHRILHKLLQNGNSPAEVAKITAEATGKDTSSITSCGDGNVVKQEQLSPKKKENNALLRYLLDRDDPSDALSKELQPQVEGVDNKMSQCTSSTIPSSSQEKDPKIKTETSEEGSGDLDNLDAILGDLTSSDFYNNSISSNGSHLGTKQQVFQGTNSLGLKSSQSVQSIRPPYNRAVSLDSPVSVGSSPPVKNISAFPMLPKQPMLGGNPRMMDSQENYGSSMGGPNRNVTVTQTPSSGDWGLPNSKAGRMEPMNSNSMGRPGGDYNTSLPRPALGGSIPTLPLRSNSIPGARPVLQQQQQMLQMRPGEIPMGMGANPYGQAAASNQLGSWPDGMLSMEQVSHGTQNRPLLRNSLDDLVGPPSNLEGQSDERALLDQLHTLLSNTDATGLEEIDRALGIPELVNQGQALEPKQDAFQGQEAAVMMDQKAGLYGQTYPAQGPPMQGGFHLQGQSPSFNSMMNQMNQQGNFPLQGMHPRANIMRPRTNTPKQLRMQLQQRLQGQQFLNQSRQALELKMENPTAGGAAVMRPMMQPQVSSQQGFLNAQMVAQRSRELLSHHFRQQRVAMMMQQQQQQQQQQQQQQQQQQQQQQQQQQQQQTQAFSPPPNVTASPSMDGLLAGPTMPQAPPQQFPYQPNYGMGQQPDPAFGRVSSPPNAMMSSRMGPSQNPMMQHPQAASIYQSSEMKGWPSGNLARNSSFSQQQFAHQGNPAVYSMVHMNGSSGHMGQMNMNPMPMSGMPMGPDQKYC

Each compound was assayed against Nuclear receptor coactivator 3 (Homo sapiens) (UniProt Q9Y6Q9) (assay: SRC3 coactivator transcriptional activity inhibitors, primary screen, cell-based, luminescence (AID 588352;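 note: 0% = DMSO-treated cells and 100% = gossypol-treated cells at 36 µM; higher means less SRC3-driven luciferase light from the GAL4 reporter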)). Conditions: HEK293 GAL4-SRC3 luciferase reporter, at 3.6 µM, stronger effect = higher value.

**Q.** For `Cc1c(NP(C)(=O)Oc2ccc(C(C)C)cc2)c(=O)n(-c2ccccc2)n1C` (stereo not drawn), which inhibition is on record?
**A.** inactive: 6.83%

**Q.** `COc1ccccc1OP(C)(=O)Nc1ccc(C)cc1C` (stereo not drawn) was tested. Which inhibition did it give?
**A.** inactive: 2.15%

**Q.** With `CP(=O)(Nc1ccccn1)Oc1ccccc1` (stereo not drawn) as the compound, how does the inhibition read?
**A.** inactive: 7.49%

**Q.** With `CCc1ccc(OP(C)(=O)O)cc1` as the compound, how does the inhibition read?
**A.** inactive: 6.06%

**Q.** `CCN(CC)CCCOC(=O)C(O)(c1ccccc1)c1ccccc1` was tested. Which inhibition did it give?
**A.** inactive: 4.53%

**Q.** Which inhibition does the source give for `O=[N+]([O-])c1cc([N+](=O)[O-])c(Nc2cccnc2)c([N+](=O)[O-])c1` here?
**A.** inactive: 0.92%

**Q.** How did the inhibition turn out when `O=[N+]([O-])c1ccc2c(c1)C=Nc1ccccc1O2` was run?
**A.** inactive: 22.7%

**Q.** Which inhibition does the source give for `Cc1cccc(C)c1OP(C)(N)=O` (stereo not drawn) here?
**A.** inactive: 10.7%

**Q.** How did the inhibition turn out when `CC(C)(C)c1ccc(OP(C)(=O)Nc2ccc(SC(F)(F)F)cc2)cc1` (stereo not drawn) was run?
**A.** inactive: 28.1%

**Q.** Which inhibition does the source give for `Cc1ccc(NP(C)(=O)Oc2ccccc2)c(C)c1` (stereo not drawn) here?
**A.** inactive: 5.93%

**Q.** Which inhibition does the source give for `COc1ccccc1OP(C)(=O)Nc1ccc(C)cc1` (stereo not drawn) here?
**A.** inactive: 11.4%

**Q.** Which inhibition does the source give for `CCOC(=O)c1ccc(NP(C)(=O)Oc2ccccc2)cc1` (stereo not drawn) here?
**A.** inactive: 28.8%

**Q.** How did the inhibition turn out when `Cc1cc(C)cc(OP(C)(N)=O)c1` (stereo not drawn) was run?
**A.** inactive: 8.34%

**Q.** `COc1ccc(OP(C)(=O)Nc2cccc(F)c2)cc1` (stereo not drawn) was tested. Which inhibition did it give?
**A.** inactive: -12%

**Q.** With `COc1ccccc1OP(C)(=O)Nc1cc(Cl)ccc1C` (stereo not drawn) as the compound, how does the inhibition read?
**A.** inactive: 6.84%

**Q.** With `CP(=S)(Nn1cnnc1)Oc1ccccc1` (stereo not drawn) as the compound, how does the inhibition read?
**A.** inactive: -1.88%

**Q.** For `CP(=O)(Nc1ccccc1Br)Oc1ccccc1` (stereo not drawn), which inhibition is on record?
**A.** inactive: -6.14%

**Q.** Which inhibition does the source give for `COc1ccccc1OP(C)(=O)Nc1ccccc1` (stereo not drawn) here?
**A.** inactive: 6.69%

**Q.** Which inhibition does the source give for `CP(=O)(Oc1ccccc1)OC(c1ccccc1)C(F)(F)F` (stereo not drawn) here?
**A.** inactive: 3.3%

**Q.** With `CP(=O)(Nc1ccc(SC(F)(F)F)cc1)Oc1ccc(Cl)cc1` (stereo not drawn) as the compound, how does the inhibition read?
**A.** inactive: 7.72%

**Q.** For `Cc1ccc(Nc2c([N+](=O)[O-])cc([N+](=O)[O-])cc2[N+](=O)[O-])cc1`, which inhibition is on record?
**A.** inactive: -5.26%

**Q.** With `Cc1cccc(C)c1OP(C)(=O)Nc1ccc(SC(F)(F)F)cc1` (stereo not drawn) as the compound, how does the inhibition read?
**A.** inactive: -26.8%

**Q.** With `Cc1cc(C)cc(OP(C)(=O)Nc2ccc(SC(F)(F)F)cc2)c1` (stereo not drawn) as the compound, how does the inhibition read?
**A.** inactive: 12.9%

**Q.** With `CCc1ccc(OP(C)(=O)N2CCN(c3ccc([N+](=O)[O-])cc3)CC2)cc1` (stereo not drawn) as the compound, how does the inhibition read?
**A.** inactive: 8.29%

**Q.** With `CP(=O)(NC(=O)Nc1ccccc1)Oc1ccccc1` (stereo not drawn) as the compound, how does the inhibition read?
**A.** inactive: -4.61%

**Q.** For `O=[N+]([O-])c1cc([N+](=O)[O-])c(O)c([N+](=O)[O-])c1.c1ccc(Oc2ccncc2)cc1`, which inhibition is on record?
**A.** inactive: 12.8%

**Q.** How did the inhibition turn out when `CCOC(=O)c1ccc(NP(C)(=O)Oc2ccc(OC)cc2)cc1` (stereo not drawn) was run?
**A.** inactive: 9.96%

**Q.** Which inhibition does the source give for `CCOP(C)(=S)SCC(=O)NC(C)C(=O)O` (stereo not drawn) here?
**A.** inactive: -12.1%

**Q.** Which inhibition does the source give for `CP(=O)(Nc1ccccn1)Oc1ccc(Cl)cc1` (stereo not drawn) here?
**A.** inactive: 17.8%

**Q.** How did the inhibition turn out when `O=[N+]([O-])c1cc([N+](=O)[O-])c(-n2nnc3ccccc32)c([N+](=O)[O-])c1` was run?
**A.** inactive: 13.6%

**Q.** For `CN(Cc1cccnc1)C(=O)COc1ccc(Cl)c(Cl)c1.O=[N+]([O-])c1cc([N+](=O)[O-])c(O)c([N+](=O)[O-])c1`, which inhibition is on record?
**A.** inactive: 11.4%

**Q.** How did the inhibition turn out when `O=[N+]([O-])c1cc([N+](=O)[O-])c(-c2cnn(-c3ccccc3)c2)c([N+](=O)[O-])c1` was run?
**A.** inactive: 12.2%

**Q.** How did the inhibition turn out when `Cc1nc2ccc3ccccc3c2s1.O=[N+]([O-])c1cc([N+](=O)[O-])c(O)c([N+](=O)[O-])c1` was run?
**A.** inactive: -6.35%

**Q.** For `CCOC(=O)C(CC)C1=NC(C)(C)Cc2ccccc21.O=[N+]([O-])c1cc([N+](=O)[O-])c(O)c([N+](=O)[O-])c1` (stereo not drawn), which inhibition is on record?
**A.** inactive: -7.64%

**Q.** How did the inhibition turn out when `O=[N+]([O-])c1cc([N+](=O)[O-])c(Nc2nnnn2CCO)c([N+](=O)[O-])c1` was run?
**A.** inactive: -19.6%

**Q.** Which inhibition does the source give for `CC1=C2N=C(C=C3N=C(C(C)=C4[N-][C@@](C)([C@@H]5N=C1[C@](C)(CCC(=O)NC[C@@H](C)OP(=O)([O-])O[C@H]1[C@@H](O)[C@@H](n6cnc7cc(C)c(C)cc76)O[C@@H]1CO)[C@H]5CC(N)=O)[C@@](C)(CC(N)=O)[C@@H]4CCC(N)=O)[C@@](C)(CC(N)=O)[C@@H]3CCC(N)=O)C(C)(C)[C@@H]2CCC(N)=O.[C-]#N.[Co+3]` here?
**A.** inactive: -7.96%

**Q.** For `CN1CCCCC1COC(=O)C1(O)c2ccccc2CCc2ccccc21` (stereo not drawn), which inhibition is on record?
**A.** inactive: 0.47%

**Q.** How did the inhibition turn out when `COc1ccccc1OP(C)(=O)Nc1c(C)cccc1C` (stereo not drawn) was run?
**A.** inactive: -17.1%

**Q.** `CP(=O)(Nc1ccc(SC(F)(F)F)cc1)Oc1ccccc1` (stereo not drawn) was tested. Which inhibition did it give?
**A.** inactive: 15.8%

**Q.** With `CCCOc1ccc(NP(C)(=O)Oc2ccc(Cl)cc2)cc1` (stereo not drawn) as the compound, how does the inhibition read?
**A.** inactive: 2.28%

**Q.** For `O=C(O)c1cccc(Nc2c([N+](=O)[O-])cc([N+](=O)[O-])cc2[N+](=O)[O-])c1`, which inhibition is on record?
**A.** inactive: -1.27%

**Q.** For `CC1=NCCc2c1[nH]c1ccccc21.O=[N+]([O-])c1cc([N+](=O)[O-])c(O)c([N+](=O)[O-])c1`, which inhibition is on record?
**A.** inactive: 0.85%

**Q.** For `COc1ccccc1OP(C)(=O)Nc1cccc(Br)c1` (stereo not drawn), which inhibition is on record?
**A.** inactive: 14.2%

**Q.** How did the inhibition turn out when `CCOC(=O)c1ccc(NP(C)(=O)Oc2cc(C)cc(C)c2)cc1` (stereo not drawn) was run?
**A.** inactive: 4.19%

**Q.** How did the inhibition turn out when `Cc1cc(C)cc(OP(C)(=O)Nc2ccc(C)cc2C)c1` (stereo not drawn) was run?
**A.** inactive: 12.6%

**Q.** Which inhibition does the source give for `Cc1ccc(C)c(NP(C)(=O)Oc2ccccc2)c1` (stereo not drawn) here?
**A.** inactive: -2.56%

**Q.** For `CP(=O)(Nc1cccc(Br)c1)Oc1ccccc1` (stereo not drawn), which inhibition is on record?
**A.** inactive: 15.6%

**Q.** `Cc1cc(C)cc(OP(C)(=O)Nc2ccccn2)c1` (stereo not drawn) was tested. Which inhibition did it give?
**A.** inactive: 2.64%
